Earlier results as cited in article PMC7811525, “Virtual screening of potentially endocrine-disrupting chemicals against nuclear receptors and its application to identify PPARγ-bound fatty acids” (Archives of Toxicology, 2020).

Tested on: AR
Conditions: active/inactive call; ref ToxCast database released in October 2015; cited from earlier work

CC(C)OP(=S)(OC(C)C)SCCNS(=O)(=O)c1ccccc1
ToxCast activity against AR: active
